The target in the assay is D(2) dopamine receptor (Oryctolagus cuniculus, UniProt G1T1Q0).

Sequences of proteins named here, by UniProt entry; tags and fusion partners are left off.
UniProt G1T1Q0, whole entry: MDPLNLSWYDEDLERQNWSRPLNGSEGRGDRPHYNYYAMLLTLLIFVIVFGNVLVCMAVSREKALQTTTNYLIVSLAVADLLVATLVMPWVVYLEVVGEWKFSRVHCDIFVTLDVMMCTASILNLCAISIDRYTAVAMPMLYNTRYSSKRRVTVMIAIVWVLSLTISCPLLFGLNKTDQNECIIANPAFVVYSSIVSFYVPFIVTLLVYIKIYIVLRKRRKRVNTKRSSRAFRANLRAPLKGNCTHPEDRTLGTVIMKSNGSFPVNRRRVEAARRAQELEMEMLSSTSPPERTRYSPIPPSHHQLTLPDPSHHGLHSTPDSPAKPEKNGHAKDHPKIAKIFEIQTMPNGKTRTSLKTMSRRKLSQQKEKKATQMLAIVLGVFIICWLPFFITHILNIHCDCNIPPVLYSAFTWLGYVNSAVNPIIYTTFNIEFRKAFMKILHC

The term Ki denotes the dissociation constant of the complex between target and ligand, obtained from inhibition or displacement. `CCN1CCCC1CNC(=O)c1cc(S(N)(=O)=O)ccc1OC` (stereo unspecified) [N-[(1-ethylpyrrolidin-2-yl)methyl]-2-methoxy-5-sulfamoylbenzamide] returned a Ki of 1200 nM.

The values above are taken from BindingDB's records for PubMed 6655559 (University of California, 1983).
